Data on 1 compound can be found in article PMC6424980, “Distinct G protein-coupled receptor phosphorylation motifs modulate arrestin affinity and activation and global conformation” (Nature Communications, 2019).

By UniProt entry, the sequences of proteins in these tests, tags left out.
UniProt P08168, whole entry F85A/F197A: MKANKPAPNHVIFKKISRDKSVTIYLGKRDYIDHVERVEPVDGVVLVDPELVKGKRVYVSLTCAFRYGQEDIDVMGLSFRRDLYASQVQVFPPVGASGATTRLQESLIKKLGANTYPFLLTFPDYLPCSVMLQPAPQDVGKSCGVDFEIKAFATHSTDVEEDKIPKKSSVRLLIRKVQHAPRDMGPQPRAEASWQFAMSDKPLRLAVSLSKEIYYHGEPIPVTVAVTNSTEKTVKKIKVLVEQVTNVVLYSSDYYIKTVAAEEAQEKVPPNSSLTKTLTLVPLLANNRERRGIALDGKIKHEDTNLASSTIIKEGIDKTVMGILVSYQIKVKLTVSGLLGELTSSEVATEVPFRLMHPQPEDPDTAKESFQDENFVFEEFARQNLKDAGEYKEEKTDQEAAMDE

Some results are limits rather than exact numbers.

For one assay, the system named is arrestin-1 (F85A, F197A). Put plainly: Limited trypsin digestion of arrestin-1 in presence of peptide. Type of assay: biochemical, bovine. Conditions: arrestin:peptide 1:1.2, 35 °C, SDS PAGE. From the text:
(§1) Synthesized cDNAs of bovine arrestin-1, human arrestin-2 and human arrestin-3 were ordered from Genewiz, amplified by PCR and cloned (Supplementary Information Table 5) into the pET-15b vector (Novagen), using the Gibson Assembly protocol. The constructs contained an N-terminal hexa histidine tag linked by a linker that contained a Tobacco Etch Virus cleavage site (TEV; […]). PCR was used to introduce the monomerizing arrestin-1 mutations (F85A, F197A)[58]. Note that this mutant was employed for fluorescence anisotropy, trypsin digestion, and NMR experiments. Wild-type arrestin-2 and -3 were used for fluorescence anisotropy and trypsin digestion experiments. […] The arrestin-1 in this construct had the wild-type sequence. Note that this construct differs slightly from that previously published[59],[60] and was optimized for purification. We verified the functionality of this fusion construct using the standard centrifugal pull-down assay using phosphorylated rhodopsin in native ROS membranes.
(§2) Arrestin (60 µg) was mixed at a 1 to 1.2 molar ratio with peptide and preincubated at RT for 5 min before 1 μl of 0.15 mg/ml trypsin stock was added. The enzymatic digestion was carried out at 35 °C (20 mM Bis-Tris propane pH 7.0, 150 mM NaCl, 10 mM 2‑Mercaptoethanol and 2 mM EDTA). […]

Assay [1] has as its system arrestin-1 mutants I72B and F197NBD with nonphosphorylated light-activated rhodopsin in ROS membranes. The experiment in a line: Ternary complex formation (site-directed fluorescence and centrifugal pull-down). Type of assay: biochemical, bovine. The conditions noted are these: 10 µM rhodopsin in ROS, 1 µM arrestin-1 I72B or F197NBD, 100 µM peptide, pH 7. From the text:
Recombinant bovine arrestin-1 cloned into the pET15b vector was expressed and purified as described. The basic construct was a modified wild-type sequence that contained no native cysteines (C63A, C128S and C143A) nor tryptophans (W194F). Single cysteine residues were introduced by PCR at sites 72 or 197 as previously described. The I72C mutant was labeled with monobromobimane (Thermo Fisher) and is referred to as I72B. The F197C mutant was labeled with N,N′-Dimethyl-N-(Iodoacetyl)-N′-(7-Nitrobenz-2-Oxa-1,3-Diazol-4-yl)Ethylenediamine (IANBD amide, Thermo Fisher) and is referred to as F197NBD. Labeling was carried out as previously described[43],[61]. Both labeled mutants were assessed to be functionally similar to wild-type arrestin-1 using the Extra Meta II assay, which determines the ability of arrestin-1 to bind and stabilize the active Meta II form of rhodopsin[64].
Under dim-red light, samples were prepared that contained nonphosphorylated rhodopsin (10 µM) in ROS membranes, 1 µM arrestin-1 I72B or F197NBD, ±100 µM peptide in 50 mM HEPES, 130 mM NaCl, pH 7 (150 or 200 µl sample volume). One hundred microliters of the sample was used for fluorescence measurements, and the remainder was used for the centrifugal pull-down assay (50 µl per assay). Steady-state fluorescence measurements were performed using a SPEX Fluorolog (1680) instrument in front-face mode. Bimane fluorescence was recorded using an excitation wavelength of 400 nm and emission 424–600 nm, and NBD fluorescence was recorded using an excitation wavelength of 500 nm and emission 524–660 (2 nm step size, 0.5 s integration per point). Excitation slits were narrowed to 0.1−0.2 nm to minimize light-activation of rhodopsin, and emission slits were set at 4 nm. Pull-down analysis was performed by centrifuging samples at 16,000 × g for 10 min at 20 °C. Selected samples were light activated (>495 nm) for 15 s prior to centrifugation (appr. 60 s delay time). Following centrifugation, the supernatants were removed, and the pellets were solubilized in loading buffer containing 2% SDS and subjected to SDS PAGE. Bands were visualized using Coomassie Brilliant Blue.

Assay [2] relates to arrestin-3. The experiment in a line: Fluorescence anisotropy binding of fluorescein-labelled peptides to arrestin-3. Also noted: species or system human.
Excerpt: as §1
0.1–0.2 mg of lyophilized peptide was dissolved in 50 µl of 50 mM phosphate-buffered saline (PBS) buffer at pH 7.0, and then two molar equivalents of fluorescein-5-maleimide dye stock dissolved in dimethylsulfoxid was added. The reaction was carried out at RT in the dark. After 1 h the reaction was topped up with 1 ml of ice-cold 100% acetone and stored until the next day at −20 °C. The precipitated peptide was centrifuged (13,000 × g) for 10 min. The labeled and precipitated peptide was sedimented, and the supernatant was removed. […] It was dissolved in 50 µl of 20 mM Bis-Tris propane pH 7.0 and 150 mM NaCl and its concentration was determined by absorbance. […]
An 11-step serial dilution series of arrestin in 20 mM Bis-Tris propane pH 7.0, 150 mM NaCl, 8 mM 2‑mercaptoethanol, 2% (w/w) BSA, 0.02% (v/v) Tween-20 was prepared and transferred to a black high-bottom 384-well plate (Greiner). […] The reading was performed by default settings of PHERAstar plate-reader (BMG Labtech) and excitation‑/emission-wavelengths of 485 nm (12 nm bandpass)/520 nm (30 nm bandpass) were used. […]
On the technique in general: In fluorescence polarisation assays a small probe gives low polarisation when free and higher when bound to something large.

The target in assay [3] is T1, arrestin-1 (monomerizing mutant F85A, F197A) (Bos taurus, UniProt P08168, F197A/F85A).
T1 construct: made in house; host or cells: E. coli NiCo (DE3) cells (New England Biolabs), pET-15b vector
Put plainly: Fluorescence anisotropy binding of fluorescein-labelled peptides to arrestin-1. Also noted: species or system bovine. Conditions: read-out: Kd for arrestin-1, 20 nM labelled peptide, pH 7.0, RT, one-to-one binding model, triplicate.
Excerpt: as §1
0.1–0.2 mg of lyophilized peptide was dissolved in 50 µl of 50 mM phosphate-buffered saline (PBS) buffer at pH 7.0, and then two molar equivalents of fluorescein-5-maleimide dye stock dissolved in dimethylsulfoxid was added. The reaction was carried out at RT in the dark. […] It was dissolved in 50 µl of 20 mM Bis-Tris propane pH 7.0 and 150 mM NaCl and its concentration was determined by absorbance. […]

Assay [4] has as its system arrestin-3. Put plainly: Limited trypsin digestion of arrestin-3 in presence of peptide. It is filed as biochemical, human. The conditions noted are these: arrestin:peptide 1:1.2, 35 °C, SDS PAGE.
Excerpt: as §1, §2

For a further assay, the system named is arrestin-2. The experiment in a line: Limited trypsin digestion of arrestin-2 in presence of peptide. The conditions noted are these: arrestin:peptide 1:1.2, 35 °C, SDS PAGE. Type of assay: biochemical, human.
Excerpt: as §1
Arrestin (60 µg) was mixed at a 1 to 1.2 molar ratio with peptide and preincubated at RT for 5 min before 1 μl of 0.15 mg/ml trypsin stock was added. The enzymatic digestion was carried out at 35 °C (20 mM Bis-Tris propane pH 7.0, 150 mM NaCl, 10 mM 2‑Mercaptoethanol and 2 mM EDTA). At certain time points (5, 15, 30, 60, 90 min), 5 μl aliquots were quenched with heat incubation in the presence of 20 μl SDS loading buffer (95 °C, 5 min) and then subjected to SDS PAGE. Bands were visualized with InstantBlue (Expedeon).

In the case of `CC(C)[C@H](NC(=O)[C@H](CCC(N)=O)NC(=O)[C@H](COP(=O)(O)O)NC(=O)[C@@H](NC(=O)[C@H](CCC(=O)O)NC(=O)[C@@H](NC(=O)[C@H](CCCCN)NC(=O)[C@H](COP(=O)(O)O)NC(=O)[C@@H](NC(=O)[C@@H](NC(=O)[C@@H](NC(=O)[C@H](COP(=O)(O)O)NC(=O)[C@H](C)NC(=O)[C@H](CCC(=O)O)NC(=O)[C@H](CC(=O)O)NC(=O)[C@H](CC(=O)O)NC(=O)[C@@H](N)CS)[C@@H](C)OP(=O)(O)O)[C@@H](C)OP(=O)(O)O)C(C)C)[C@@H](C)OP(=O)(O)O)[C@@H](C)OP(=O)(O)O)C(=O)N[C@@H](C)C(=O)N1CCC[C@H]1C(=O)N[C@@H](C)C(=O)O` [7P], the “limited trypsin digest pattern of arrestin-1 (conformational change, C-tail displacement)” value in the assay with arrestin-1 (F85A, F197A) is reported as “two major bands”. Further, in assay [1], the “ternary complex formation (arrestin-1, nonphosphorylated rhodopsin, peptide)” value was “Efficient ternary complex formation”. Further, the “binding to arrestin-3 (in words)” value in the assay with arrestin-3 [2] is on record as “higher affinity”. Besides, the Kd in assay [3] was under 250 µM. The “limited trypsin digest pattern of arrestin-3” value with arrestin-3 [4] is given as “change of the digestion pattern from three to two bands”. Further, the “rate of trypsin digestion of arrestin-2” value in the assay on arrestin-2 is “accelerated”.

Broadly, the Kd is the free concentration of one partner at which half of the binding sites on the other are occupied at equilibrium, for simple one-to-one binding.
